{"source": "ChEMBL document CHEMBL3804781", "about": "“Antitrypanosomal activity of 5-nitro-2-aminothiazole-based compounds” (Eur J Med Chem, 2016)"}
{"assay": "Selectivity ratio of IC50 for bloodstream form of Trypanosoma brucei rhodesiense STIB 900 trypomastigotes to IC50 for bloodstream form of Trypanosoma brucei brucei", "type": "functional"}
{"smiles": "O=C(Nc1ncc([N+](=O)[O-])s1)c1ccc(-c2ccccc2)cc1", "Ratio IC50": "< 12"}
{"smiles": "O=C(CN1CCN(C(c2ccccc2)c2ccc(Cl)cc2)CC1)Nc1ncc([N+](=O)[O-])s1", "note": "(stereo unspecified)", "Ratio IC50": "< 12"}
{"smiles": "O=C(CN1CCN(c2ccccn2)CC1)Nc1ncc([N+](=O)[O-])s1", "Ratio IC50": "< 12"}
{"smiles": "O=C(CN1CCN(c2ccc(Cl)c(Cl)c2)CC1)Nc1ncc([N+](=O)[O-])s1", "Ratio IC50": "< 12"}
{"smiles": "O=C(CN1CCN(c2ccc(C(F)(F)F)cc2)CC1)Nc1ncc([N+](=O)[O-])s1", "Ratio IC50": "< 12"}
{"smiles": "O=C(COc1ccc(-c2ccccc2)cc1)Nc1ncc([N+](=O)[O-])s1", "Ratio IC50": "< 12"}
